Results from PubChem BioAssay AID1347041 (National Center for Advancing Translational Sciences (NCATS), 2019).
The list shows a part of the results, in another mix than the full data. The source made the active and inactive calls. Rule as the data show it: active = activity change below about -30%; inconclusive = mostly about -25% to -30%; inactive = weaker than that.
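Also: values are at about 110 or 230 µM; plate controls were DMSO wells for no effect and wells without enzyme for full effect.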

The compounds below were run against L-lactate dehydrogenase A chain (Homo sapiens) (UniProt P00338) (assay: qHTS assay for inhibitors of human lactate dehydrogenase). Conditions: purified LDHA, NADH/diaphorase-resazurin fluorescence; hits give low values.
Text: LDH is a key glycolytic enzyme that catalyzes the final step in the glycolytic pathway, reducing pyruvate to lactate and regenerating NAD+ equivalents necessary for continued glycolysis. LDHA has been linked to the carcinogenesis and malignancy in numerous forms of cancers and many other diseases. Consequently, both pharma and academia have invested in significant research efforts to identify small molecule therapeutics. Such attempts have been stalled or abandoned due to limited success in discovering potent and drug-like inhibitors that can be utilized to validate LDHA in vivo as a drug target, a necessary step toward advancing such a molecule towards the clinic Towards this goal we designed and performed a quantitative high-throughput screening (qHTS) campaign to discover novel compounds that are potent inhibitors of LDHA enzyme activity and cancer cell line growth.
The assay was optimized to 1536-well plates. […] Plates were immediately transferred to a ViewLux microplate imager (PerkinElmer, Waltham, MA), and any resulting resorufin fluorescence was measured (ex540, em590 nm) at 0 and 20 minutes. Fluorescence was normalized using enzyme-free and DMSO-treated control wells on each plate.
`CCC(=O)N(c1ccccc1)C1(COC)CCN(CCn2nnn(CC)c2=O)CC1` was tested, and the activity change was inactive: -10.3%.
With `CCC(=O)N(c1ccccc1)C1(COC)CCN(CCc2cccs2)CC1` the activity change was inactive: -4.62%.
